In patent publication US10660932B2, “Drug combinations and methods to stimulate embryonic-like regeneration to treat diabetes and other diseases” (UNIVERSITY OF SOUTHERN CALIFORNIA, priority 2016, dated 2020):

Test system: STZ-treated mice

CN(N=O)C(=O)N[C@H]1C(O)O[C@H](CO)[C@@H](O)[C@@H]1O (mixture of isomers) [STZ, streptozotocin]
blood glucose (hyperglycemia) (5 days after STZ treatment (STZ BL)): > 300 mg/dL
depletion of insulin-secreting β cells (STZ 150 mg/kg, STZ BL (day 5)): about 85%
blood glucose (STZ-treated mice receiving the AL diet, days 30 and 50): above 450 mg/dl
